Measurements reported in patent US10059709B2, “Compounds” (Elanco Tiergesundheit AG, priority 2014, dated 2018).

Amino acid sequences for entries named in this document (tags omitted). Residues count along the entry.
UniProt P23458, 866-1154: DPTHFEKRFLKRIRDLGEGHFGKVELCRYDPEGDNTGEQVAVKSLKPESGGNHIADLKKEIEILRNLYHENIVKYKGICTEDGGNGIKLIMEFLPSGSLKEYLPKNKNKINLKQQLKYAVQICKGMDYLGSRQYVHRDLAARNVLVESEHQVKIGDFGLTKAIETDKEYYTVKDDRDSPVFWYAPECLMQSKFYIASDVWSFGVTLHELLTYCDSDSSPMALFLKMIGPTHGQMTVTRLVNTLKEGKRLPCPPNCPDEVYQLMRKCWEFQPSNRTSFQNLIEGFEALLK
UniProt P29597, 888-1187: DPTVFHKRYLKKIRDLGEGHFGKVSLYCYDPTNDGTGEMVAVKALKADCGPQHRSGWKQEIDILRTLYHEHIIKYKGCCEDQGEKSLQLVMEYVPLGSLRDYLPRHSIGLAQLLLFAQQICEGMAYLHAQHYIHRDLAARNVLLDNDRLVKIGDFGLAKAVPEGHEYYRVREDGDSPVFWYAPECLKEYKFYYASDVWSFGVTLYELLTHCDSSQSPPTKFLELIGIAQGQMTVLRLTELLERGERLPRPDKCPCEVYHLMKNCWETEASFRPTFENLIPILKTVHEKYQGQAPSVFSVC

Tests used:
GST-JAK1(866-1154) = GST-JAK1(866-1154) (Homo sapiens (Human), UniProt P23458); test: Caliper mobility shift kinase assay, JAK1; type: biochemical; details: IRS-1 peptide 5 μM, ATP 40 μM, 60 minutes at 30° C.
Text: (§1) Measurement of the Effect on the JAK Enzyme
(§2) All four kinases of the JAK/TYK-kinase family were used as purified recombinant GST-fusion proteins, containing the active kinase domains. GST-JAK1(866-1154), GST-JAK3(811-1124), and GST-TYK2(888-1187) were expressed and purified by affinity chromatography at the EPK biology unit.
(§3) The kinase assays were based on the Caliper mobility shift assay using the LabChip 3000 systems. This technology is similar to capillary electrophoresis and uses charge driven separation of substrate and product in a microfluidic chip.
(§4) All kinase reactions were performed in 384 well microtiter plates in a total reaction volume of
(§5) 18 μI. The assay plates were prepared with 0.1 μI per well of test compound in the appropriate test concentration, as described under the section “preparation of compound dilutions”. The reactions were started by combining 9 μI of substrate mix (consisting of peptide and ATP) with 9 μI of kinase dilution. The reactions were incubated for 60 minutes at 30° C. and stopped by adding 70 μI of stop buffer (100 mM Hepes, 5% DMSO, 0.1% Coating reagent, 10 mM EDTA, 0.015% Brij 35).
(§6) Fluorescently labeled synthetic peptides were used as substrates in all reactions. A peptide derived from the sequence of IRS-1 (IRS-1 peptide, FITC-Ahx-[…]-NH2) was used for JAK1 and TYK2 and a peptide named JAK3tide (FITC-[…]-NH2) for JAK3. Specific assay conditions are described in Table 4:
(§7) The terminated reactions were transferred to the Caliper LabChip 3000 reader and the turnover of each reaction was measured by determining the substrate/product ratio.
(§8) Preparation of Compound Dilutions
(§9) Test compounds were dissolved in DMSO (10 mM) and transferred into 1.4 mL flatbottom or V-shaped Matrix tubes carrying a unique 2D matrix chip by individual compound hubs. The numbers of these chips were distinctively linked to the individual compound identification numbers. The stock solutions were stored at −20° C. if not used immediately. […]

GST-TYK2(888-1187) = GST-TYK2(888-1187) (Homo sapiens (Human), UniProt P29597); test: Caliper mobility shift kinase assay, TYK2; type: biochemical; details: IRS-1 peptide 5 μM, ATP 30 μM, 60 minutes at 30° C.
Text: as §1, §2, §3, §4, §5, §6, §7, §8, §9

| IC50 (GST-JAK1(866-1154)) | IC50 (GST-TYK2(888-1187)) | SMILES |
| --- | --- | --- |
| 0.838 µM | 5.51 µM | CNS(=O)(=O)C[C@H]1CC[C@H](N(C)c2ncnc3[nH]c(C)nc23)CC1 [compound 1] |
| 2 µM |  | CNS(=O)(=O)C[C@H]1CC[C@H](Nc2nc(N)ncc2Br)CC1 [compound 13] |
|  | 1.1 µM | CNS(=O)(=O)C[C@H]1CC[C@H](Oc2c([N+](=O)[O-])cnc3[nH]ccc23)CC1 [compound 25, N-methyl-1-[trans-4-[(5-nitro-1H-pyrrolo[2,3-b]pyridin-4-yl)oxy]cyclohexyl]methanesulfonamide] |

Continued, molecule first:

| SMILES | IC50 (GST-JAK1(866-1154)) | IC50 (GST-TYK2(888-1187)) |
| --- | --- | --- |
| CNS(=O)(=O)C[C@H]1CC[C@H](N(C)c2c([N+](=O)[O-])cnc3[nH]ccc23)CC1 [compound 18] | 0.021 µM |  |
| CNS(=O)(=O)C[C@H]1CC[C@H](Nc2c(C#N)cnn3cccc23)CC1 [compound 27] |  | 7.8 µM |
